Laboratory results as given in ChEMBL document CHEMBL5346881 (Eur J Med Chem, 2023).

How the values were obtained:
[1] = test system: MRC5; test: Growth inhibition of human MRC5 cells incubated for 48 hrs by MTT assay; type: functional
[2] = test system: PC-3; test: Antiproliferative activity against human PC-3 cells assessed inhibition of cell growth incubated for 48 hrs by MTT assay
[3] = test system: PC-3; test: Growth inhibition of human PC-3 cells incubated for 48 hrs by MTT assay; type: functional
[4] = test system: PC-3; test: Antitumor activity against human PC-3 cells xenografted in CB17 SCID mouse assessed as tumor inhibition at 18 mg/kg, ip administered as single dose measured after 21 days; settings: time 21 day
[5] = test system: MCF7; test: Growth inhibition of human MCF7 cells incubated for 48 hrs by MTT assay; type: functional
[6] = test system: SK-OV-3; test: Growth inhibition of human SK-OV-3 cells incubated for 48 hrs by MTT assay; type: functional
[7] = test system: MRC5; test: Antiproliferative activity against human MRC5 cells assessed inhibition of cell growth incubated for 48 hrs by MTT assay
[8] = test system: MCF7; test: Antiproliferative activity against human MCF7 cells assessed inhibition of cell growth incubated for 48 hrs by MTT assay
[9] = test system: SK-OV-3; test: Antiproliferative activity against human SK-OV-3 cells assessed inhibition of cell growth incubated for 48 hrs by MTT assay
[10] = test system: SK-OV-3; test: Antitumor activity against human SK-OV-3 cells xenografted in CB17 SCID mouse assessed as tumor inhibition at 18 mg/kg, ip administered as single dose measured after 11 days; settings: time 11 day
[11] = Growth inhibition of human UWB1289 cells harboring BRCA1 incubated for 48 hrs by MTT assay
[12] = Antiproliferative activity against human UWB1289 cells harboring BRCA1 assessed inhibition of cell growth incubated for 48 hrs by MTT assay
[13] = test system: PC-3; test: Antitumor activity against human PC-3 cells xenografted in CB17 SCID mouse assessed as reduction in tumor volume at 18 mg/kg, ip administered as single dose measured after 21 days (reference value: 683 +/- 47.3 mm3); settings: time 21 day
[14] = test system: SK-OV-3; test: Antitumor activity against human SK-OV-3 cells xenografted in CB17 SCID mouse assessed as reduction in tumor volume at 18 mg/kg, ip administered as single dose measured after 11 days (reference value: 790 +/- 65.6 mm3); settings: time 11 day

In the case of `O=C(O)[C@@H](O)COc1ccc(N(CCCl)CCCl)cc1`, the GI50 [1] is reported as over 100 µM, the TGI [1] is reported as over 100 µM and the IC50 [2] is reported as over 100 µM. It also gave a GI50 [3] of over 100 µM, a TGI [3] of over 100 µM and a TGI [4] of 55%. For the same molecule, the GI50 [5] was over 100 µM, the TGI [5] was over 100 µM and the GI50 [6] was 24 µM. For the same molecule, the TGI [6] was over 100 µM, the IC50 [7] was over 100 µM and the IC50 [8] was over 100 µM. It also gave an IC50 [9] of over 100 µM, a TGI [10] of 19% and a GI50 [11] of over 100 µM. It also gave a TGI [11] of over 100 µM, an IC50 [12] of over 100 µM and an Activity [13] of 368 mm3. The Activity [14] was 677 mm3.
